Measurements reported in patent US6306876A, “4-[aryl(8-azabicyclo[3.2.1]octan-3-yl)]aminobenzoic acid derivatives” (dated 2001).

Biological target: delta-opioid receptor (Rattus norvegicus, UniProt P33533)
Test: Rat Brain Delta-Opioid Receptor Binding Assay
Settings: read-out: Delta K; rat forebrain homogenate, [3H]DPDPE, 25° C., pH 7.4

Row | Structure (SMILES) | Ki [nM]
1 | C=CCN1C2CCC1CC(N(c1cccc(O)c1)c1cccc(C(=O)N(C)c3cccc(F)c3)c1)C2 (stereo not shown) | 1
2 | CCN(CC)C(=O)c1ccc(N(c2ccccc2)[C@H]2C[C@H]3CC[C@@H](C2)N3Cc2ccc3c(c2)OCO3)cc1 | 0.2
3 | CCN(CC)C(=O)c1ccc(N(c2ccccc2)[C@H]2C[C@H]3CC[C@@H](C2)N3C2CCCCC2)cc1 | 2
4 | CCN(CC)C(=O)c1ccc(N(c2ccccc2)[C@@H]2C[C@H]3CC[C@@H](C2)N3Cc2ccc3c(c2)OCO3)cc1 | 4
5 | CCN(CC)C(=O)c1cccc(N(c2ccccc2)C2CC3CCC(C2)N3C)c1 (stereo not shown) | 6720
6 | CCN(CC)C(=O)c1ccc(N(Cc2ccccc2)[C@H]2C[C@H]3CC[C@@H](C2)N3C)cc1 | 33.6
7 | CCCCN(C)C(=O)c1ccc(N(c2ccccc2)C2CC3CCC(C2)N3CCc2ccccc2)cc1 (stereo not shown) | 4
8 | CC(C)(C)OC(=O)c1ccc(N(c2ccccc2)C2CC3CCC(C2)N3CCc2ccccc2)cc1 (stereo not shown) | 10000
9 | COc1cccc(N(c2cccc(C(=O)N(C)c3cccc(F)c3)c2)C2CC3CCC(C2)N3)c1 (stereo not shown) | 24.3
10 | C=CCN1C2CCC1CC(N(c1cccc(OC)c1)c1cccc(C(=O)N(C)c3cccc(F)c3)c1)C2 (stereo not shown) | 42.6
